Here are results for 1 substance from patent US8586369B2, “Ion channel-forming peptides” (The Regents of the University of California, priority 2007, dated 2013).

The series can be described thus: Stability toward hydrolysis in acidic and basic solutions (HPLC analysis). The series is classed as physicochemical.

Regarding gramicidyl glycine, for the setting “pH 3.5, 23° C.”, the “hydrolysis in acidic solution” value is recorded as “not observed after 24 hours”. Further, the “hydrolysis in basic solution” value (pH 10.4, 23° C., HPLC analysis) is listed as “observed after 3 hours”.
